Assay results taken from ChEMBL document CHEMBL1137492, “Phenylethyl-substituted pyrimido[2,1-f]purinediones and related compounds: structure-activity relationships as adenosine A(1) and A(2A) receptor ligands” (Bioorg Med Chem, 2007).

Molecular target: Adenosine receptor A1 (Rattus norvegicus) (UniProt P25099)
Assay: Displacement of [3H]CCPA from adenosine A1 receptor in rat brain cortical membrane at 25 uM

Activity [%] | Structure (SMILES)
46 | Cn1c(=O)c2c(nc3n2CCCN3CCc2ccc(O)cc2)n(C)c1=O
22 | Cn1c(=O)c2c(nc3n2CCCN3CCc2ccccn2)n(C)c1=O
41 | Cn1c(=O)c2c(nc3n2CCCN3CCc2c[nH]c3ccccc23)n(C)c1=O
